Measurements as given in PubChem BioAssay AID720709 (National Center for Advancing Translational Sciences (NCATS), 2013).
The entries are a selection whose mix differs from that of the whole data set. Results filed as inconclusive are left out. Some structures show a salt or complex split into parts, the way the source records it. Activity calls are given as the source filed them. Calls come from the whole dose curve; as a rule, active = well fitted inhibition curve with a large enough effect; inconclusive = small, poorly fitted or top-dose-only effect; inactive = no such curve, though single readings can be large or run the other way.

Amino acid sequences for entries named in this document (tags omitted).
UniProt O95398, whole entry: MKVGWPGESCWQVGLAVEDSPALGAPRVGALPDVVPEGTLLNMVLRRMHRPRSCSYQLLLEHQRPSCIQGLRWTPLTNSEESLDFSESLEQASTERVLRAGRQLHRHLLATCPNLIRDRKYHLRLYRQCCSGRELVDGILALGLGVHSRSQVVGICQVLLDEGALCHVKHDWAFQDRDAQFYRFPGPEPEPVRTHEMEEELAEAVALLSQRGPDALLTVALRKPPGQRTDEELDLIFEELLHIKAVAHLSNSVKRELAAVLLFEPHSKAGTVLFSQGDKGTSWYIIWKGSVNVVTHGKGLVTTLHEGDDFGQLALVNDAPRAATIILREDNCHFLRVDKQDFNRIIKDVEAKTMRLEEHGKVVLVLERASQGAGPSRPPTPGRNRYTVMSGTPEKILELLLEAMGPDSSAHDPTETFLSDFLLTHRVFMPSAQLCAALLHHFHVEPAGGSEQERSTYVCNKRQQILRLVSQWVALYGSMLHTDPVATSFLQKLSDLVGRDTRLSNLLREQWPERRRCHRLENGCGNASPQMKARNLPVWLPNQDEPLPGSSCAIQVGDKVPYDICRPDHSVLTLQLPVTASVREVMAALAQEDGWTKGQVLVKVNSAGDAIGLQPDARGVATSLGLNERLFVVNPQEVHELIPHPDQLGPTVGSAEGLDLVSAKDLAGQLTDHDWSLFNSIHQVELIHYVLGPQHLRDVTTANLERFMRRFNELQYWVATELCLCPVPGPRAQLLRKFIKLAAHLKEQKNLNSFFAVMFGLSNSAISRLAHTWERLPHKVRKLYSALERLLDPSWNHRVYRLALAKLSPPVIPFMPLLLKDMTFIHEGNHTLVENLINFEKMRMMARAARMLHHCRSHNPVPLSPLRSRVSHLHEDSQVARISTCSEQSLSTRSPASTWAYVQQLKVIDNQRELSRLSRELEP

target: Rap guanine nucleotide exchange factor 3 (Homo sapiens) (UniProt O95398); assay: qHTS for Antagonist of cAMP-regulated guanine nucleotide exchange factor 3 (EPAC1): primary screen; conditions: EPAC1 GEF assay, Rap1b-BODIPY-GDP exchange fluorescence; at 115 µM (top of the series);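 note: plate controls were vehicle for no effect and positive control for full effect; nearly all actives have a fitted effect of over 50% in size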
Text: In multi-cellular eukaryotic organisms, the effects of cAMP are transduced by two ubiquitously-expressed intracellular cAMP receptors, the classic protein kinase A/cAMP-dependent protein kinase (PKA/cAPK) and the more recently discovered exchange protein directly activated by cAMP/cAMP-regulated guanine nucleotide exchange factor (EPAC/cAMP-GEF). Both PKA and EPAC are ubiquitously expressed in all tissues, and an increase in intracellular cAMP levels will lead to the activation of both PKA and EPAC. Therefore, careful dissections of the individual role and relative contribution of EPAC and PKA within the overall cAMP signaling in various model systems are critical for further elucidating the mechanism of cAMP signaling. To date no EPAC-specific antagonists and agonist, as well as isoform-specific agonists have been reported, and developing EPAC-specific pharmacological probes to determine the physiological functions that EPAC play in the overall cAMP-mediated signaling remains a major challenge within the research field. Furthermore, identified regulators of EPAC may lead to new mechanism-based therapeutic strategies specifically targeting the EPAC / cAMP-signaling components as EPAC has been implicated to play important roles in major human pathological conditions such as diabetes, heart disease, and cancer. This qHTS will be used to screen the Molecular Libraries Small Molecule Repository (MLSMR) as a concentration-titration series using the NCGC unique quantitative screening (qHTS) platform to find inhibitors for EPAC1. In addition, this assay will also be used as a counterscreen for the EPAC2 qHTS. This fluorescent based assay is developed and validated for EPAC1 that measures exchange using EPAC effector Rap1 complex with BODIPY-GDP, a GDP analog with a tethered fluorophores. Inhibitors are identified by monitoring the change in fluorescence signal as the exchanged free BODIPY-GDP has a reduced fluorescence compared to Rap1-bound BODIPY-GDP. Decrease in signal (inhibition) is the desired outcome for the EPAC1 antagonist while no activity in this assay is desired for the EPAC2 antagonist counterscreen. de Rooij, J., Zwartkruis, F. J., Verheijen, M. H., Cool, R. H., Nijman, S. M., Wittinghofer, A., and Bos, J.L. (1998) Nature 396, 474-477 [2] Kawasaki, H., Springett, G. M., Mochizuki, N., Toki, S., Nakaya, M., Matsuda, M., Housman, D. E., and Graybiel, A. M. (1998) Science 282, 2275-2279 NIH Chemical Genomics Center [NCGC] NIH Molecular Libraries Probe Centers Network [MLPCN] MLPCN Grant: NS066510 Assay Submitter (PI): Xiaodong Cheng, The University of Texas, Medical Branch
Briefly, three uL of reagents (100 nM EPAC1, 250 nM RAP1B-BODIPY-GDP, 50 uM GDP) were dispensed into a 1536-well Greiner black solid-bottom medium binding assay plate. Controls and test compounds (23 nL) were transferred to the plate via a Kalypsys pin tool equipped with a 1536-pin array. The plates were centrifuged at 1,000 rpm for 15 seconds followed by 5 minute incubation at room temperature. The assay plates were read at 5 minute intervals for 30 minutes in the ViewLux plate reader using 480nm excitation and 540nm emission filters. The results were normalized to the […] positive control ATA and DMSO.

Row | SMILES | activity change, negative = inhibition
1 | CN1CCC(Nc2ccc(Cl)cc2)CC1 | inactive: -3.08%
2 | COc1cc(OC)cc(C(=O)NCC2(N3CCOCC3)CCCCC2)c1 | inactive: 2.87%
3 | COc1cccc(C(c2nnnn2C2CCCC2)N2CCC(n3c(=O)[nH]c4ccccc43)CC2)c1OC (centres undefined) | inactive: -2.71%
4 | COc1cccc(C(=O)N(c2cc(C)cc(C)c2)C2CCN(C(=O)OC(C)(C)C)CC2)c1 | inactive: 4.64%
5 | CCC(CO)(C(=O)OC1CN2CCC1CC2)c1ccccc1 (centres undefined) | inactive: -10.7%
6 | CC(C)(C)OC(=O)N1CCC(Nc2ccccc2)CC1 | inactive: -12.3%
7 | O=C(O)C1(Nc2ccccc2)CCN(Cc2ccccc2)CC1 | inactive: -5.13%
8 | NN(c1ccccc1)C1CCN(CCc2ccccc2)CC1 | inactive: -0.143%
9 | CCCOc1ccc(C(=O)NCC2(N(C)C)CCCCC2)cc1 | inactive: 14.9%
10 | O=c1[nH]c2ccccc2n1C1CCN(C(c2cc3ccccc3o2)c2nnnn2C2CCCC2)CC1 (centres undefined) | inactive: -18.7%
11 | CCOc1ncccc1C(=O)NCC1(N2CCOCC2)CCCCC1 | inactive: 14%
12 | CN1CCC(Nc2ccc(F)c(Cl)c2)CC1 | inactive: -1.11%
13 | O=C(NCC1(N2CCCCC2)CCCCC1)c1ccco1 | inactive: 22.4%
14 | Cn1c(=O)[nH]cc(N(CCCl)CCCl)c1=O | inactive: -13.9%
15 | CN(C)c1ccc(C(=O)NCC2(N3CCCCC3)CCCCC2)cc1 | inactive: -5.21%
16 | Cc1ccccc1NC1(C#N)CCN(Cc2ccccc2)CC1 | inactive: -7.01%
17 | CC(C)(C)n1nnnc1C(c1ccnc2ccccc12)N1CCC(n2c(=O)[nH]c3ccccc32)CC1 (centres undefined) | inactive: -7.74%
18 | CCN1CCC(Nc2cccc(F)c2)CC1 | inactive: 7.25%
19 | COc1ccc(C(c2nnnn2C2CCCCC2)N2CCC(n3c(=O)[nH]c4ccccc43)CC2)cc1 (centres undefined) | inactive: 1.39%
20 | Cc1ccc(C(=O)NCC2(N3CCCCC3)CCCCC2)o1 | inactive: -18.7%
21 | Cc1ccc(Nc2c([N+](=O)[O-])cc([N+](=O)[O-])cc2[N+](=O)[O-])cc1 | inactive: -3.61%
22 | Fc1ccccc1NC1CCN(Cc2ccccc2)CC1 | inactive: 11.9%
23 | Cc1ccc(NC2(C#N)CCN(Cc3ccccc3)CC2)cc1 | inactive: -1.7%

Row | SMILES | activity change, negative = inhibition
24 | CC(=O)N(c1ccccc1)C1CCNCC1 | inactive: -14.6%
25 | COc1cccc(C(c2nnnn2C2CCCCC2)N2CCC(n3c(=O)[nH]c4ccccc43)CC2)c1OC (centres undefined) | inactive: -17%
26 | CCC(c1nnnn1C1CCCCC1)N1CCC(n2c(=O)[nH]c3ccccc32)CC1 (centres undefined) | inactive: -23.4%
27 | O=c1[nH]c2ccccc2n1C1CCN(C(c2ccnc3ccccc23)c2nnnn2C2CCCCC2)CC1 (centres undefined) | inactive: -19.5%
28 | COc1cc(OC)cc(C(=O)NCC2(N3CCCCC3)CCCCC2)c1 | inactive: -5.81%
29 | CC(C)(C)n1nnnc1C(c1cccc2ccccc12)N1CCC(n2c(=O)[nH]c3ccccc32)CC1 (centres undefined) | inactive: -7.05%
30 | CN(C)C1(CNC(=O)c2cccc(C#N)c2)CCCCC1 | inactive: -19.3%
31 | c1ccc(CN2CCC(Nc3ccccc3)CC2)cc1 | inactive: 20.5%
32 | Cc1cc(N(CCCl)CCCl)ccc1C=O | inactive: 6.11%
33 | O=c1[nH]c2ccccc2n1C1CCN(C(c2ccccc2)c2nnnn2C2CCCC2)CC1 (centres undefined) | inactive: -13.9%
34 | CCCN1CCC(Nc2cc(OC)cc(OC)c2)CC1 | inactive: 3%
35 | CCOC(=O)C(CC)C1=NC(C)(C)Cc2ccccc21.O=[N+]([O-])c1cc([N+](=O)[O-])c(O)c([N+](=O)[O-])c1 (centres undefined) | inactive: 7.9%
36 | N#Cc1ccc(C(=O)NCC2(N3CCCCC3)CCCCC2)cc1 | inactive: -21.6%
37 | CC(C)(C)OC(=O)N1CCC(N(C(=O)c2ccccc2)c2ccc(Cl)cc2)CC1 | inactive: -16.7%
38 | O=C(OC1CN2CCC1CC2)C1c2ccccc2C=Cc2ccccc21 (centres undefined) | inactive: 3.74%
39 | CCc1cc(C(=O)NCC2(N3CCCCC3)CCCCC2)sc1C | inactive: 17%
40 | O=c1[nH]c2ccccc2n1C1CCN(C(c2cccs2)c2nnnn2C2CCCC2)CC1 (centres undefined) | inactive: -0.26%
41 | O=C(O)c1cccc(Nc2c([N+](=O)[O-])cc([N+](=O)[O-])cc2[N+](=O)[O-])c1 | inactive: -5.01%
42 | CCCCn1nnnc1C(c1cccc(OC)c1OC)N1CCC(n2c(=O)[nH]c3ccccc32)CC1 (centres undefined) | inactive: -7.83%
43 | COc1cccc(C(c2nnnn2C(C)(C)C)N2CCC(n3c(=O)[nH]c4ccccc43)CC2)c1OC (centres undefined) | inactive: -18.8%
44 | CCOC(=O)N1CCC(Nc2ccc(C)cc2)CC1 | inactive: -5.09%
45 | N/C(=N\O)c1c(N)no[n+]1[O-] | inactive: 17.1%
46 | O=c1[nH]c2ccccc2n1C1CCN(C(c2cccs2)c2nnnn2C2CCCCC2)CC1 (centres undefined) | inactive: -2.3%

Row | SMILES | activity change, negative = inhibition
47 | COc1ccc(C(=O)NCC2(N3CCOCC3)CCCCC2)cc1OC | inactive: -2%
48 | O=c1[nH]c2ccccc2n1C1CCN(C(c2ccnc3ccccc23)c2nnnn2C2CCCC2)CC1 (centres undefined) | inactive: -10.5%
49 | CCCCn1nnnc1C(c1ccccc1)N1CCC(n2c(=O)[nH]c3ccccc32)CC1 (centres undefined) | inactive: -9.92%
50 | COc1cc(C(=O)NCC2(N3CCOCC3)CCCCC2)cc(OC)c1C | inactive: -7.39%
51 | O=C(NCC1(N2CCOCC2)CCCCC1)c1cc(Br)ccc1Cl | inactive: 3.12%
52 | O=[N+]([O-])c1cc([N+](=O)[O-])c(Nc2ccc(Cl)cc2)c([N+](=O)[O-])c1 | inactive: -15.7%
53 | COc1ccc(C(c2nnnn2C2CCCC2)N2CCC(n3c(=O)[nH]c4ccccc43)CC2)cc1 (centres undefined) | inactive: 7.04%
54 | Cc1ccc(C(=O)NCC2(N(C)C)CCCCC2)o1 | inactive: 5.44%
55 | CCCOc1ccc(C(=O)NCC2(N(C)C)CCCCC2)cc1OC | inactive: -16.4%
56 | O=C(OC1CN2CCC1CC2)c1ccc([N+](=O)[O-])cc1 (centres undefined) | inactive: -1.78%
57 | COc1ccc2c(c1O)-c1c(O)c(OC)cc3c1[C@H](C2)[N+](C)(C)CC3.O=[N+]([O-])c1cc([N+](=O)[O-])c([O-])c([N+](=O)[O-])c1[O-] | inactive: 4.43%
58 | O=C(NCC1(N2CCCCC2)CCCCC1)c1cncc(Br)c1 | inactive: 5.79%
59 | CN1CCC(Nc2cccc(F)c2)CC1 | inactive: -5.56%
60 | COc1cc(OC)c(C(=O)NCC2(N(C)C)CCCCC2)cc1OC | inactive: 18.6%
61 | O=C(NCC1(N2CCOCC2)CCCCC1)c1cc(F)c(F)cc1Cl | inactive: -3.47%
62 | CCC(c1nnnn1C(C)(C)C)N1CCC(n2c(=O)[nH]c3ccccc32)CC1 (centres undefined) | inactive: -13.9%
63 | CCN(CC)CCCNc1ccccc1[N+](=O)[O-].O=[N+]([O-])c1cc([N+](=O)[O-])c(O)c([N+](=O)[O-])c1 | inactive: 9.27%
64 | CCCCn1nnnc1C(c1ccnc2ccccc12)N1CCC(n2c(=O)[nH]c3ccccc32)CC1 (centres undefined) | inactive: -1.28%
65 | CCCCn1nnnc1C(c1ccccc1OC(F)(F)F)N1CCC(n2c(=O)[nH]c3ccccc32)CC1 (centres undefined) | inactive: -17.9%
66 | CC(C)c1ccc(NC2CCN(C(=O)OC(C)(C)C)CC2)cc1 | inactive: -27.6%
67 | COc1ccc(CN(CCCl)CCCl)cc1Cl | inactive: 2.56%
68 | O=[N+]([O-])c1cc([N+](=O)[O-])c(OC2CCCCC2O)c([N+](=O)[O-])c1 (centres undefined) | inactive: -10.7%
69 | CN(C)c1cccc(C(=O)NCC2(N3CCCCC3)CCCCC2)c1 | inactive: 8.94%

Row | SMILES | activity change, negative = inhibition
70 | COc1cc(C(=O)NCC2(N3CCCCC3)CCCCC2)ccc1OC(F)F | inactive: -7.08%
71 | O=C(NCC1(N2CCOCC2)CCCCC1)c1cc(=O)[nH]c2ccccc12 | inactive: -6.6%
72 | CCCCn1nnnc1C(c1cccc2ccccc12)N1CCC(n2c(=O)[nH]c3ccccc32)CC1 (centres undefined) | inactive: -1.51%
73 | CN1CCN(CCOC(=O)C(O)(c2ccccc2)c2ccccc2)CC1 | inactive: -3.34%
74 | CC(C)c1ccc(C(=O)NCC2(N3CCOCC3)CCCCC2)cc1 | inactive: 4.33%
75 | COc1ccc(NC2CCN(C(=O)OC(C)(C)C)CC2)cc1 | inactive: -16.1%
76 | O=[N+]([O-])c1cc([N+](=O)[O-])c(NCC2CCS(=O)(=O)C2)c([N+](=O)[O-])c1 (centres undefined) | inactive: 9.82%
77 | O=C(NCC1(N2CCCCC2)CCCCC1)c1cccc(C(F)(F)F)c1 | inactive: 9.72%
78 | CCN1CCC(Nc2ccc(Cl)cc2)CC1 | inactive: 7.7%
79 | N#CC1(Nc2ccccc2)CCN(CCc2ccccc2)CC1 | inactive: 10.1%
80 | O=c1[nH]c2ccccc2n1C1CCN(C(c2ccccc2OC(F)(F)F)c2nnnn2C2CCCC2)CC1 (centres undefined) | inactive: -17%
81 | O=C(NCC1(N2CCCCC2)CCCCC1)c1cccc([N+](=O)[O-])c1 | inactive: 7.93%
82 | CSc1ccc(C(=O)NCC2(N3CCOCC3)CCCCC2)cc1 | inactive: -2.11%
83 | CC(C)(C)n1nnnc1C(c1ccccc1OC(F)(F)F)N1CCC(n2c(=O)[nH]c3ccccc32)CC1 (centres undefined) | inactive: -21.4%
84 | O=C(NCC1(N2CCCCC2)CCCCC1)c1ccc(OC(F)F)cc1 | inactive: 2.6%
85 | COc1cc(C(=O)NCC2(N(C)C)CCCCC2)ccc1OC(F)F | inactive: 1.45%
86 | CCOC(=O)N1CCC(Nc2cccc(C)c2)CC1 | inactive: -7.81%
87 | O=c1[nH]c2ccccc2n1C1CCN(C(c2cccc3ccccc23)c2nnnn2C2CCCC2)CC1 (centres undefined) | inactive: -0.978%
88 | O=c1[nH]c2ccccc2n1C1CCN(C(c2ccccc2)c2nnnn2C2CCCCC2)CC1 (centres undefined) | inactive: -14.3%
89 | O=C(NCC1(N2CCCCC2)CCCCC1)c1ccc(F)cc1 | inactive: 7.55%
